pKi: −log10 of the molar value.

This experiment concerns the target ORL-1 receptor (Homo sapiens, UniProt P41146). Briefly: Nociceptin binding assay ([125I][Tyr14]nociceptin, CHO cell membranes). As to conditions: CHO cell membrane preparation expressing the ORL-1 receptor.

The molecule `O=C(C1CCCCC1)N1CN(c2ccccc2)C2(CCN(C(c3ccccc3)c3ccccc3)CC2)C1=O` gave a pKi of 5.52.

What is called pKi is the Ki on a negative log10 scale, so that one unit is a factor of ten. A high value points to a low Ki.

Source of the values: US6716846B2, “High affinity ligands for nociceptin receptor ORL-1” (Schering Corporation, priority 1998, dated 2004).
